{"source": "paper PMC3460729", "about": "“Innate immune properties of selected human neuropeptides against Moraxella catarrhalis and nontypeable Haemophilus influenzae” (BMC Immunology, 2012)", "key": {"[1]": {"test_system": "E. coli ML-35p", "experiment": "ONPG-mediated β-galactosidase membrane permeability assay", "assay_type": "cell-based, Escherichia coli", "description": "To measure the activity of neuropeptides in permeabilization of bacterial membrane, the ONPG-mediated β-galactosidase microplate assay was used. Permeabilization was measured using E. coli ML-35 with constitutive cytoplasmic β-galactosidase activity as previously described. Briefly, 18 h E. coli ML-35p in TSB was recultivated in TSB until mid-log phase (OD600 = 0.5). Flasks were put on ice for 20 min, and 2 ml of bacterial suspensions were transferred to Eppendorf tubes, washed twice with 10 mM sodium phosphate NaPB (pH 7.4) and suspended in NaPB to OD600 = 0.5. […] Microplates were incubated at 37°C for 1.5 h and optical densities were measured every 15 minutes at λ=405 nm (spectrophotometer Opsys MR Dynex Technologist). All the assays were performed in triplicate. Two positive controls were used: polymyxin B at the final concentration of 1 μg/ml as an established model of peptide permeabilizing action, and 20% chloroform (v/v). […] The molar concentration of NP that caused such increase was extrapolated from a linear portion of NP titration curve. Negative controls constituted bacteria incubated with NaPB and ONPG but without neuropeptides."}, "[2]": {"test_system": "H. influenzae ATCC 49247, NTHi3, NTHi6", "details": "ATCC 49247, 3 h", "description": "(§1) For the radial diffusion assay a mid-log phase bacteria were diluted to the concentration of ~ 1–2 × 10^6 CFU/ml in 10 ml of melted and cooled to 42°C, 1% agarose (w/v, molecular biology grade) in 10 mM sodium phosphate containing 1/100 dilution of full strength BHI and 0.02% (v/v) Tween 20 (Sigma). After vigorous mixing, the bacteria in the agarose were poured onto Petri plate forming under-layer in which 3 mm diameter sterile wells were cut. The wells were filled with serially diluted neuropeptides (5 μl) at concentrations ranging from 10^−6 M to 10^−3 M and plates were incubated for 3 h at 37°C to allow peptide diffusion. The plates were then overlaid with 10 ml of the buffered 1% agarose containing 6% BHI (w/v) and allowed to harden. […] The MIC value was determined as the x-axis intercept obtained from the relationship between the diameter of radial diffusion zones versus NP concentration. […] Polymyxin B was used as a positive control."}, "[3]": {"test_system": "M. catarrhalis ATCC 25238, Mc5, Mc6", "details": "ATCC 25238, 3 h", "description": "as §1"}}, "data": [{"molecule": "CC[C@H](C)[C@H](NC(=O)[C@H](Cc1ccc(O)cc1)NC(=O)[C@H](Cc1c[nH]cn1)NC(=O)[C@H](CCCNC(=N)N)NC(=O)[C@H](CC(C)C)NC(=O)[C@H](C)NC(=O)[C@H](CO)NC(=O)[C@H](Cc1ccc(O)cc1)NC(=O)[C@H](Cc1ccc(O)cc1)NC(=O)[C@H](CCCNC(=N)N)NC(=O)[C@H](C)N)C(=O)N[C@@H](CC(N)=O)C(=O)N[C@@H](CC(C)C)C(=O)N[C@H](C(=O)N[C@H](C(=O)N[C@@H](CCCNC(=N)N)C(=O)N[C@@H](CCC(N)=O)C(=O)N[C@@H](CCCNC(=N)N)C(=O)N[C@@H](Cc1ccc(O)cc1)C(N)=O)[C@@H](C)O)[C@@H](C)CC", "note": "[NPY18–36]", "values": [{"measurement": "time of maximal OD increase (ONPG influx)", "setting": "[1]; 10 μM neuropeptide", "value": "~ 75 min"}, {"measurement": "time of maximal OD increase (ONPG influx)", "setting": "[1]; 100 μM neuropeptide", "value": 75, "unit": "min"}, {"measurement": "ID50 (inducible dose) for intracellular influx of ONPG", "setting": "[1]; dose causing 50% increase in OD405 in reference to chloroform-inducible maximum at 45 min, 10^6 CFU/ml, NaPB pH 7.4, 3 mM ONPG, 37°C, triplicate", "value": 2.0, "unit": "µM"}, {"measurement": "MIC", "setting": "[2]", "value": "25 to 40", "unit": "µM"}, {"measurement": "MIC", "setting": "[3]", "value": "8 to 12.5", "unit": "µM"}]}]}
